Here are results for twelve compounds from patent US10202345B2, “Substituted azaspiro(4.5)decane derivatives” (priority 2014, dated 2019).

The chains behind the UniProt entries cited, without tags or fusion partners. Where a name states a change or a piece, a line headed by the entry shows the natural chain unless it says otherwise.
UniProt P35372, whole entry, looked up: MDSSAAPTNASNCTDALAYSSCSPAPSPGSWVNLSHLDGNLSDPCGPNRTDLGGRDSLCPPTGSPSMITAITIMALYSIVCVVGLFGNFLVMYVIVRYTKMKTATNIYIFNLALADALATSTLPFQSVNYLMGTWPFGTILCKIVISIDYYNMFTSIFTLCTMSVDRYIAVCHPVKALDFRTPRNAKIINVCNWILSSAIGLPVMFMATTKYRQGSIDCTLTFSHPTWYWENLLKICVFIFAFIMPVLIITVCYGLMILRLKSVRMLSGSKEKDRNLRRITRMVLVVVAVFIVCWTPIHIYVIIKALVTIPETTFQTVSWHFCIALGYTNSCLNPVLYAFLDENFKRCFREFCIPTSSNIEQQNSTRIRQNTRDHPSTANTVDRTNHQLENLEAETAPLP
UniProt P41146: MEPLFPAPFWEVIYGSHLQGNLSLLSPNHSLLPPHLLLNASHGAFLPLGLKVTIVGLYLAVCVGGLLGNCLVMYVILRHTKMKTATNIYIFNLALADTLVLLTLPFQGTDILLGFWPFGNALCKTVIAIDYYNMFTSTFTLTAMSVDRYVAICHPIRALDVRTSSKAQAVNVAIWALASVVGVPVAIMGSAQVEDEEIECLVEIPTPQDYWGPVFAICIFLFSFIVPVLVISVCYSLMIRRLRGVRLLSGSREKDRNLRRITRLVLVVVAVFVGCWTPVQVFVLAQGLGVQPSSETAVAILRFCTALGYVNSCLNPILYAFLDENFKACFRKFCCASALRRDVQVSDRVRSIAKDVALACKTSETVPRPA

For one experiment, the target named is human μ opiate receptor (Homo sapiens, UniProt P35372). The experiment can be described thus: μ opiate receptor binding assay with [3H]-naloxone (WGA-SPA beads). The note with it: for Ki: read-out: Ki (μ) mean [μm], mean; for % inhibition (μ) [1 μM]: test concentration 1 μM.
The target of the next experiment is ORL1 receptor (Homo sapiens, UniProt P41146). The experiment can be described thus: ORL1 receptor binding assay with 3H-nociceptin/orphanin FQ (WGA-SPA beads). The note with it: for Ki: read-out: Ki (ORL1) mean, mean; for % inhibition (ORL1) [1 μM]: test concentration 1 μM.
In experiment [1] the test system is rats. The experiment can be described thus: Analgesia in the tail flick (focal ray) test in rats, intravenous administration.
Experiment [2] has as its system rats.

Broadly, the Ki is a measure of affinity in units of concentration, obtained from inhibition or displacement.

Consider `CN(C)C1(c2ccccc2)CCC2(CCN(C(=O)CC3(C#N)CC3)C2)CC1` (centres unmarked), for which, on human μ opiate receptor, the inhibition constant Ki came to 1.65 nM and the “% inhibition (μ) [1 μM]” value came out at 99%. For the same compound, on ORL1 receptor, the Ki is 2.47 nM and the “% inhibition (ORL1) [1 μM]” value turned out to be 94.5%. Moreover, the “Tail flick rat, i.v. ED50 rat [μg/kg]” value with rats [1] is 78.6 µg/kg.
In the same order, the values of `CN(C)C1(c2cccs2)CCC2(CCN(C(=O)CC3(C#N)CC3)C2)CC1` (centres unmarked) are 1.07 nM, 99.5%, 2.95 nM, 92% and 14.6 µg/kg.
As to `COC1(CC(=O)N2CCC3(CCC(C4CCCC4)(N(C)C)CC3)C2)CCC1` (centres unmarked), at human μ opiate receptor, the inhibition constant (Ki) is 2.65 nM and the “% inhibition (μ) [1 μM]” value is recorded as 98.5%. Further, at ORL1 receptor, the inhibitory constant (Ki) was 10.2 nM and the “% inhibition (ORL1) [1 μM]” value stood at 91.5%. In addition, the “Tail flick rat, i.v. % MPE (@μg/kg)” value with rats [1] (@100 μg/kg) turned out to be 100%@100 % MPE.
Regarding `CN(C)C1(C2CCCC2)CCC2(CCN(CCC3CC3)C2)CC1` (centres unmarked), on human μ opiate receptor, the Ki was found to be 2.45 nM and the “% inhibition (μ) [1 μM]” value was determined as 98.5%. Also, at ORL1 receptor, the inhibition constant (Ki) was found to be 15.5 nM and the “% inhibition (ORL1) [1 μM]” value is reported as 88.5%. The “SNL rat, i.v. ED50 rat [μg/kg]” value with rats [2] was found to be 107 µg/kg. The “Tail flick rat, i.v. ED50 rat [μg/kg]” value in the experiment on rats [1] turned out to be 162 µg/kg.
Consider `CCCCN1CCC2(CCC(c3cccs3)(N(C)C)CC2)C1` (centres unmarked), for which, on human μ opiate receptor, the Ki worked out at 2.8 nM and the “% inhibition (μ) [1 μM]” value worked out at 98.5%. Also, at ORL1 receptor, the inhibition constant (Ki) was found to be 2.9 nM and the “% inhibition (ORL1) [1 μM]” value is 89.5%. In the experiment on rats [2], the “SNL rat, i.v. ED50 rat [μg/kg]” value is 105 µg/kg. In addition, the “Tail flick rat, i.v. ED50 rat [μg/kg]” value in the experiment with rats [1] was found to be 414 µg/kg.
As to `COCCN1CCC2(CCC(c3cccs3)(N(C)C)CC2)C1` (centres unmarked), on human μ opiate receptor, the inhibition constant Ki came out at 46.5 nM and the “% inhibition (μ) [1 μM]” value turned out to be 80.5%. In addition, at ORL1 receptor, the Ki amounted to 18 nM and the “% inhibition (ORL1) [1 μM]” value is on record as 71.5%. The “Tail flick rat, i.v. ED50 rat [μg/kg]” value with rats [1] was 5260 µg/kg.
In the same order, the values of `CN(C)C1(c2cccs2)CCC2(CCN(C(=O)CC3CCCO3)C2)CC1` (centres unmarked) are 1.3 nM, 100.5%, 2.05 nM, 96% and 1.86 µg/kg.
The like results for `CN1CC2(CCC(c3ccccc3)(N(C)C)CC2)CC1=O` (centres unmarked) were, in that order, 38 nM, 95%, 29 nM, 82% and 422 µg/kg.
For `CN(C)C1(c2cccs2)CCC2(CCN(C(=O)CC3CCOC3)C2)CC1` (centres unmarked), at human μ opiate receptor, the Ki amounted to 1.75 nM and the “% inhibition (μ) [1 μM]” value is 99%. Further, at ORL1 receptor, the inhibition constant Ki came out at 3.4 nM and the “% inhibition (ORL1) [1 μM]” value was 89%. Moreover, the “Tail flick rat, i.v. ED50 rat [μg/kg]” value in the experiment on rats [1] came to 7.16 µg/kg.
In the same order, the values of “3-(2-cyclopropylethyl)-8-(dimethylamino)-8-phenyl-3-azaspiro[4.5]decan-2-one” are 0.3 nM, 95.5%, 0.66 nM, 97% and 3.25 µg/kg.
In the same order, the values of `CN(C)C1(c2ccccc2)CCC2(CC1)CC(=O)N(CC1CC1)C2` (centres unmarked) are 3 nM, 99%, 4.7 nM, 91% and 26.8 µg/kg.
Turning to “1-(8-Dimethylamino-8-thiophen-2-ylmethyl-2-azaspiro[4.5]dec-2-yl)-butan-1-one”, on human μ opiate receptor, the inhibition constant Ki was 0.4 nM and the “% inhibition (μ) [1 μM]” value is 100%. In addition, on ORL1 receptor, the inhibitory constant (Ki) was found to be 1.15 nM and the “% inhibition (ORL1) [1 μM]” value amounted to 97%. For the same compound, in the experiment on rats [1], the “Tail flick rat, i.v. ED50 rat [μg/kg]” value worked out at 0.7 µg/kg.
